The text below walks through data of publication PMC9676650, “Binding pocket stabilization by high-throughput screening of yeast display libraries” (Frontiers in Molecular Biosciences, 2022).

By UniProt entry, the sequences of proteins in these tests, tags left out. Where a name states a change or a piece, a line headed by the entry shows the natural chain unless it says otherwise. Residues count along the entry.
UniProt Q13451, 1-140 limits assumed: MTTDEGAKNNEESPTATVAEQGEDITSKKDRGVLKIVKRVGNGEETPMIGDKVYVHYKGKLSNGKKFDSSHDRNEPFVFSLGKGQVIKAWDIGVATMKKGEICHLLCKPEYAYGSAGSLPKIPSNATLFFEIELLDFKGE
UniProt Q13451, 1-140 D68Y limits assumed: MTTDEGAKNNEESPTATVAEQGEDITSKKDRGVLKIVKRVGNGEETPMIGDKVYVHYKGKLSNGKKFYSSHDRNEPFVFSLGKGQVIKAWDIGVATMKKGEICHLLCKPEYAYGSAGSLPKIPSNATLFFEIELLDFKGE
UniProt Q13451, 1-140 G64S limits assumed: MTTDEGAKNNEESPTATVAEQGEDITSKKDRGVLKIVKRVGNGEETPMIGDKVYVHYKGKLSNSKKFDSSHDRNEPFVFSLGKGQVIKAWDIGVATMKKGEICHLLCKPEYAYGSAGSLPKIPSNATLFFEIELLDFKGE

The target in one experiment is FKBP51 WT (Homo sapiens, UniProt Q13451). As to the kind of experiment: Competitive fluorescence polarization assay, FKBP51 WT. As to conditions: read-out: Kd-value (ligand binding constant, competitive fluorescence polarization); 20 nM FKBP51 WT; 1 nM FK [431]-TA tracer; 30 min room temperature; fitted as KI in competitive binding model. An excerpt:
(§1) All ligands and tracers used for fluorescence polarization assays had purities of more than 95%. The following ligands and tracers were used for fluorescence polarization and FACS screening experiments: •SAFit-FL tracer (1): Fluorescein conjugated analog of the iFit ligand class. •Mcyc-TA tracer (2): TAMRA conjugated macrocyclic ligand (5). •FK [431]-TA tracer (3): TAMRA conjugated FK [431] ligand (6). •SAFit1 ligand (4): analog of the iFit ligand class. •macrocyclic ligand (5):macrocyclic analog of the SAFit class ligands. •FK [431] ligand (6):bicyclic analog of the immunosuppressive drug FK506
(§2) In order to rule out artifacts introduced by the fluorophore of the tracers, competitive fluorescence polarization assays were carried out. Therefore, a serial dilution of an FK [431] ligand (6), SAFit1 (4), or a macrocyclic ligand 5) (Supplementary Figure S8) in assay buffer was placed in a 384-well assay plate. To the compounds, a mixture of the respective protein (20 nM WT, 10–40 nM G64S or 80–100 nM D68Y) and 1 nM of the FK [431]-TA in assay buffer was added. After incubating for 30 min at room temperature, the fluorescence polarization was measured. […]
Background: In fluorescence polarisation assays a small probe gives low polarisation when free and higher when bound to something large.

The next experiment has as its target FKBP51 variant G64S (Homo sapiens, UniProt Q13451, G64S). As to the kind of experiment: Competitive fluorescence polarization assay, FKBP51 G64S. The conditions noted are these: read-out: Kd-value (ligand binding constant, competitive fluorescence polarization); 10-40 nM FKBP51 G64S; 1 nM FK [431]-TA tracer; 30 min room temperature; fitted as KI in competitive binding model.
From the text: as §1, §2

The target in another experiment is FKBP51 variant D68Y (Homo sapiens, UniProt Q13451, D68Y). Nature of the experiment: Competitive fluorescence polarization assay, FKBP51 D68Y. As to conditions: read-out: Kd-value (ligand binding constant, competitive fluorescence polarization); 80-100 nM FKBP51 D68Y; 1 nM FK [431]-TA tracer; 30 min room temperature; fitted as KI in competitive binding model.
From the text: as §1, §2

The next experiment concerns FKBP51 F67Y variant. The conditions noted are these: ref Jagtap et al., 2019; cited from earlier work.
A further experiment deals with FKBP51 F67V variant. As to conditions: ref Jagtap et al., 2019; cited from earlier work.

Turning to `COc1ccc(CC[C@H]2OC(=O)[C@@H]3CCCCN3C(=O)[C@@H](C3CCCCC3)NC(=O)C(C)(C)N(C)C(=O)COc3cccc2c3)cc1OC`, the Kd (as a rule, the constant that tells how readily two partners part at equilibrium) was 780 nM at FKBP51 WT, 29 nM on FKBP51 variant G64S and 10 nM on FKBP51 variant D68Y.

For the molecule `O=C1[C@@H]2CCC[C@H]([C@@H](CO)CN1Cc1ccccn1)N2S(=O)(=O)c1cc(Cl)cc(Cl)c1`, the figures for the Kd at FKBP51 WT, at FKBP51 variant G64S and at FKBP51 variant D68Y were 27 nM, 56 nM and 126 nM, respectively. Further, in the experiment on FKBP51 F67Y variant, the “binding affinity compared to the WT” value is “decrease in its binding affinity”. Further, in the experiment on FKBP51 F67V variant, the “Kd value compared to the WT” value is reported as “slight improvement of the Kd value”.
